This is an account of results in US12303500B2, “Method for improving stability of low-concentration atropine ophthalmic preparation” (SHENYANG XINGQI PHARMACEUTICAL CO., LTD., priority 2018, dated 2025).

Structures can show the parent of a compound that is named as a salt. Where two headings read alike, the source gives them in different places.

For the series the following is noted: 40°C±2°C, RH 75%±5%; for Related substances: Total impurities: HPLC.

On to `CN1[C@@H]2CC[C@H]1C[C@@H](OC(=O)C(CO)c1ccccc1)C2` (stereo partly drawn) [Example 160903-P01, atropine sulfate], for which the Isomers entry runs as follows: (0th month) “Not detected”; (1st month) “Not detected”; (2nd month) “Not detected”; (3rd month) “Not detected”; (6th month) “Not detected”. Also, the Properties result (0th month) is given as “Colorless crystal”; the Properties result (1st month) was “Colorless crystal”; the Properties result (2nd month) was “Colorless crystal”; the Properties result (3rd month) is on record as “Colorless crystal”; the Properties result (6th month) is reported as “Colorless crystal”. Also, the “Related substances: Total impurities” value reads like this: (0th month) “Not detected”; (1st month) “Not detected”; (2nd month) “Not detected”; (3rd month) “Not detected”; (6th month) “Not detected”.
